Only a part is listed here, and it is no random draw. The source made the active and inactive calls.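 The calls were made as follows: active = lowest replicate activation of at least 40%, so every replicate reaches that level; inactive = the rest.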

This assay is described as follows: GLuc luminescence reporter in INS-1E cells, primary screen for activators of glucose-dependent secretion of insulin (AID 743287).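 Also: 0% = median of neutral control wells and 100% = median of IBMX positive control wells.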 The note with it: INS-1E GLuc reporter insulin secretion, 2-3 h, at 16.6 µM, stronger effect = higher value.
For the compound `CN(C)C1(CNC(=O)c2ccc(S(C)(=O)=O)cc2)CCCCC1`, the activation is inactive: 3.44%.

For `O=C(/C=C/c1ccccc1)OC1CN2CCC1CC2` (stereo not drawn), the activation was inactive: -8.75%. To `CCCC1OP(=O)(Nc2ccccc2)OCC1CC` (stereo not drawn) belongs inactive: -8.34%.

Regarding `CC1CCC(C(C)C)C(OP(=O)(Nc2ccccn2)c2ccccc2)C1` (stereo not drawn), the activation was inactive: -41.9%.

As to `Cc1ccc(C(=O)OC2CN3CCC2CC3)cc1` (stereo not drawn), the activation is inactive: 12.2%. To `Nc1cccc([As](=O)(O)c2ccccc2)c1` belongs inactive: 13%; to `NS(=O)(=O)c1cccc(NC(=O)COC(=O)C(O)(c2ccccc2)c2ccccc2)c1`, inactive: -9.53%. To `O=[As](O)(c1cccs1)c1cccs1` belongs inactive: -5.19%; to `Cc1ccc(S(=O)(=O)N(CCCN)CCCc2c(C)nc(N)[nH]c2=O)cc1`, inactive: 0.178%; to `O=P1(N(CCCl)CCCl)NCCC(C(F)(F)F)O1` (stereo not drawn), inactive: 4.59%. Turning to `CCC1=CC2Cc3nc4ccc(Cl)cc4c(N)c3C(C1)C2` (stereo not drawn), the activation was inactive: -11.2%.

For the compound `CCOP(=O)(NC(=NC(C)c1ccccc1)NC(C)c1ccccc1)OCC` (stereo not drawn), the activation was inactive: -9.51%. To `CCOP(=O)(Nc1ccc(C)cn1)OCC` belongs inactive: 5.64%; to `CC(C)/C=N\N=C(\N)N[N+](=O)[O-]`, inactive: 1.35%; to `CN(C(=O)Cc1ccc(Cl)c(Cl)c1)C1CCCC[C@@H]1N1CCCC1` (stereo partly drawn), inactive: 1.24%.

For `COc1ccccc1CNC(=O)COC(=O)C(O)(c1ccccc1)c1ccccc1`, the activation was inactive: 2.4%. Then `O=[As](O)(c1cccc(O)c1)c1cccc(O)c1`, with inactive: 0.496%. To `Cc1cccc(OCC(=O)OC2CN3CCC2CC3)c1` (stereo not drawn) belongs inactive: 0.794%.

Consider `O=C(OC1CN2CCC1CC2)c1ccc(Cl)cc1` (stereo not drawn), for which the activation is inactive: 1.22%. To `COc1cc(C(=O)NCC2(N3CCOCC3)CCCCC2)cc(Cl)c1OC(C)C` belongs inactive: -9.86%; to `O=[As](O)(O)c1cccnc1`, inactive: 17.9%. Then `CS(=O)(=O)c1ccc(Cl)c(NC(=O)COC(=O)C(O)(c2ccccc2)c2ccccc2)c1`, with inactive: -19.2%; and `COc1cc(C2NCCC3(OCCO3)C2(C)C)cc(OC)c1OC` (stereo not drawn), with inactive: 27.1%; and `CCOP(=O)(Nc1cccc2ccccc12)OCC`, with inactive: 12%.

Regarding `Cc1ccc(NCCc2c([N+](=O)[O-])cc([N+](=O)[O-])cc2[N+](=O)[O-])cc1`, the activation was inactive: -3.4%. Then `Nc1cccc2c([As](=O)(O)O)cccc12`, with inactive: 9.89%; and `CCCOP(=S)(Nc1nc(N)cc(=O)[nH]1)OCCC`, with inactive: -5.52%. As for `Nc1ccccc1[As](=O)(O)c1ccccc1`, the activation is inactive: 14.9%. For the compound `O=C(O)COc1ccc([As](=O)(O)O)cc1[N+](=O)[O-]`, the activation is inactive: -6.13%. For `CCOP1(=S)c2c(C)nn(CCC#N)c2N=C(c2ccccc2F)N1C` (stereo not drawn), the activation is inactive: 20.7%. For the compound `O=P(Nc1nccs1)(Oc1ccccc1)Oc1ccccc1`, the activation is inactive: -1.37%. For `N#CCCN(C(=O)COC(=O)C(O)(c1ccccc1)c1ccccc1)c1ccc(F)cc1`, the activation was inactive: -13.2%.

Take `CCOP1(=S)c2c(C)nn(CCC#N)c2N=C(c2ccc(F)cc2)N1C` (stereo not drawn): the activation is inactive: -9.08%. For the compound `CN(C)C(=O)c1cc([N+](=O)[O-])cc2c1-c1c(cc([N+](=O)[O-])cc1[N+](=O)[O-])C2=O`, the activation is inactive: -20.3%. Then `CN(C(=O)Cc1ccc(Cl)c(Cl)c1)[C@H]1CC[C@@]2(CCCO2)C[C@@H]1N1CCCC1`, with inactive: 0.015%; and `NC(=O)Nc1ccc([As](=O)(O)O)cc1`, with inactive: 10.7%. Then `[N-]=[N+]=NC1CCCCC1NC(=O)c1cc([N+](=O)[O-])cc([N+](=O)[O-])c1` (stereo not drawn), with inactive: -1.45%; and `Cc1ccc(OP(=O)(Nc2ccc([N+](=O)[O-])cn2)Oc2ccc(C)cc2)cc1`, with inactive: 4.31%.

For the compound `Cc1ccc2nc3c(c(C)c2c1)CC(C(Cl)Cl)S3` (stereo not drawn), the activation is inactive: 1.25%. Then `O=[As](O)(c1ccc(O)cc1)c1ccccc1O`, with inactive: 5.11%.

On to `C[As](=O)(O)c1cccc(C(=O)O)c1`, for which the activation is inactive: -3.8%. Then `COc1cc(C(=O)NCC2(N3CCOCC3)CCCCC2)ccc1OCC(C)C`, with inactive: 7.19%; and `CC(C)NC(=O)NP(=O)(Oc1ccccc1)Oc1ccccc1`, with inactive: -13.6%. Then `CC(C)c1ccc(OP(=O)(Nc2ccccn2)Oc2ccccc2F)cc1` (stereo not drawn), with inactive: -7.28%; and `COC(=O)C1(C)COP(=O)(N2CCCCCC2)OC1` (stereo not drawn), with inactive: 13.9%; and `O=P1(N(CCCl)CCCl)OCCCN1CCCl` (stereo not drawn), with inactive: 17.3%. Then `O=P1(N(CCCl)CCCl)Nc2ccccc2N1`, with inactive: 20.6%; and `COc1ccc2nc(NP(=O)(c3ccccc3)c3ccccc3)sc2c1`, with inactive: 19.1%; and `COc1cc(I)ccc1[As](=O)(O)O`, with inactive: 18.6%. Consider `Cc1c2c(nc3ccccc13)SC(C(Cl)Cl)C2` (stereo not drawn), for which the activation is inactive: 7.27%. Then `Cc1cc(=O)[nH]c(N[N+](=O)[O-])n1`, with inactive: 1.97%; and `O=[N+]([O-])c1cc(Oc2ccc([N+](=O)[O-])cc2C(F)(F)F)cc([N+](=O)[O-])c1`, with inactive: 1.95%; and `COc1ccc(N/C(=N/P(=O)(N2CCOCC2)N2CCOCC2)N2CCOCC2)cc1`, with inactive: 7.16%. To `O=C(O)C(=O)c1ccc(N(CCCl)CCCl)cc1` belongs inactive: 10.6%.

On to `O=C(Nc1ccncc1[N+](=O)[O-])c1ccc([N+](=O)[O-])cc1[N+](=O)[O-]`, for which the activation was inactive: -22.8%. To `COP1(=S)c2c(C)nn(CCC#N)c2N=C(c2ccc(F)cc2)N1C` (stereo not drawn) belongs inactive: -3.6%. Then `COC(=O)C1(C)COP(=O)(N2CCCC2)OC1` (stereo not drawn), with inactive: 5.6%; and `O=C(OC1CN2CCC1CC2)c1cccc([N+](=O)[O-])c1` (stereo not drawn), with inactive: 7.29%. For the compound `CCOC(=O)c1ccc(NC(=O)C(C)(CCl)SC)cc1` (stereo not drawn), the activation is inactive: -5.36%. Then `CCCCOc1ccc(C(=O)NCC2(N3CCCCC3)CCCCC2)cc1OC`, with inactive: -6.05%. With `Cc1cc(SC(NC(=O)c2ccccc2)C(Cl)(Cl)Cl)nc(C(C)C)n1` (stereo not drawn), the activation is inactive: -13.9%. Then `CCOC(=O)Nc1ccc([As](=O)(O)O)c(O)c1`, with inactive: -8.7%.

`O=P(Nc1ccccn1)(c1cccc2ccccc12)c1cccc2ccccc12`: the activation was inactive: 3.77%.

The values are drawn from PubChem BioAssay AID743287 (Broad Institute, 2014).
